Measurements as given in US8541449B2, “Substituted isoquinolines and isoquinolinones as Rho kinase inhibitors” (Sanofi, priority 2008, dated 2013).

Sequences of proteins named here, by UniProt entry; tags and fusion partners are left off. Residues count along the entry.
UniProt O75116, 11-552 limits assumed: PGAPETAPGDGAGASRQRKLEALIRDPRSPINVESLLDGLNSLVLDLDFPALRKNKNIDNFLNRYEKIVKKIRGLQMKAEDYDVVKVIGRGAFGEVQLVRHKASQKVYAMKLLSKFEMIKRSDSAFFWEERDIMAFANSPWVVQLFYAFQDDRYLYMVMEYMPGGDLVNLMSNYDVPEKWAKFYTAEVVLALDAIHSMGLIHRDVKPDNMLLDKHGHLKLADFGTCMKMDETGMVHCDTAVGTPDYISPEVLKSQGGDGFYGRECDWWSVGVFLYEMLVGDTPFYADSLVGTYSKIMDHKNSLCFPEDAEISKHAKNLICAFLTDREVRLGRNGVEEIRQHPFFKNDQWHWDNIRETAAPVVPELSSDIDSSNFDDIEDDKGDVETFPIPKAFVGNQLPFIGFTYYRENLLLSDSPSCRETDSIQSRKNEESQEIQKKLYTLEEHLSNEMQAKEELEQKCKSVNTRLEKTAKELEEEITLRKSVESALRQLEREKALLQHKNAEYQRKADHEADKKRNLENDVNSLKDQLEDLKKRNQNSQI
UniProt Q13976, 1-686 isoform 2: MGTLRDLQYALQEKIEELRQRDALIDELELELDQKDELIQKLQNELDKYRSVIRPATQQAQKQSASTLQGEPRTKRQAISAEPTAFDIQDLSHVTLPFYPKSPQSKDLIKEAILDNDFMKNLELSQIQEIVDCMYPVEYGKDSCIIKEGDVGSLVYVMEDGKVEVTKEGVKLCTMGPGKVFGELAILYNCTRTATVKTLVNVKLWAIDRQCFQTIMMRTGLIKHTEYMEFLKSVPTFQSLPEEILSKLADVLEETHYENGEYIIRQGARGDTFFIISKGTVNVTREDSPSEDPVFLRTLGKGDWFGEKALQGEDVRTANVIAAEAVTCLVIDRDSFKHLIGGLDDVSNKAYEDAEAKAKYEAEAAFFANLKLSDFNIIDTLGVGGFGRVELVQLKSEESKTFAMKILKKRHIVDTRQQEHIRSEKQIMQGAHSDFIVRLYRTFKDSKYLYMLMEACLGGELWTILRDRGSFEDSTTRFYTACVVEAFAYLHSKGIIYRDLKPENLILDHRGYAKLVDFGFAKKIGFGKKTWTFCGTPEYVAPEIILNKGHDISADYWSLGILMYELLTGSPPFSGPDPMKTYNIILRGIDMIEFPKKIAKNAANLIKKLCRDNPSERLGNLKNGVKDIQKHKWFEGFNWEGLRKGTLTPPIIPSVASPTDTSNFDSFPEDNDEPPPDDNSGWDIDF

Legend:
recombinant human PKA = recombinant human PKA (Homo sapiens, UniProt P17612); experiment: Determination of Protein Kinase A inhibition (Caliper peptide phosphorylation assay); settings: recombinant human PKA versus ROCK II
[1] = target: human recombinant ROCK II (Homo sapiens, UniProt O75116); experiment: Determination of Rho kinase inhibition (Caliper peptide phosphorylation assay); settings: 60 min at 32° C., negative decadal logarithm of the IC50
[2] = target: recombinant human PKG1-beta (Homo sapiens, UniProt Q13976); experiment: Determination of Protein Kinase G inhibition (Caliper peptide phosphorylation assay); settings: recombinant human PKG1-beta versus ROCK II

| SMILES | Selectivity against PKA (recombinant human PKA) | pIC50 [1] | Selectivity against PKG [2] |
| --- | --- | --- | --- |
| NC(c1ccc(F)cc1)C1CCC(Oc2cc3cc[nH]c(=O)c3cc2Cl)CC1 (single isomer, unassigned) [51] | > 100 | +++++ (6.0≦pIC50<7.0) | > 10 |
| CCC(N)[C@]1(c2ccccc2)CC[C@H](Oc2cc3cc[nH]c(=O)c3cc2Cl)CC1 (single isomer, unassigned) [45] | > 1000 | +++++++ (8.0≦pIC50) | > 100 |
| CCC(N)[C@]1(c2ccccc2)CC[C@H](Oc2cc3cc[nH]c(=O)c3cc2Cl)CC1 (single isomer, unassigned) [46] | > 1000 | +++++++ (8.0≦pIC50) | > 1000 |

More lines, now with the values ahead:

| Selectivity against PKA (recombinant human PKA) | pIC50 [1] | Selectivity against PKG [2] | SMILES |
| --- | --- | --- | --- |
| > 1000 | +++++++ (8.0≦pIC50) | > 1000 | CCC(N)[C@]1(c2ccc(F)cc2)CC[C@H](Oc2cc3cc[nH]c(=O)c3cc2Cl)CC1 (single isomer, unassigned) |
| > 1000 | +++++++ (8.0≦pIC50) | > 300 | NC(c1ccc(F)cc1)C1CCC(Oc2cc3cc[nH]c(=O)c3cc2Cl)CC1 (single isomer, unassigned) [52] |
